The target in experiment [1] is T1, Phosphatidylinositol 4,5-bisphosphate 3-kinase catalytic subunit delta isoform (Homo sapiens) (UniProt O00329).
T1 sequence (whole entry): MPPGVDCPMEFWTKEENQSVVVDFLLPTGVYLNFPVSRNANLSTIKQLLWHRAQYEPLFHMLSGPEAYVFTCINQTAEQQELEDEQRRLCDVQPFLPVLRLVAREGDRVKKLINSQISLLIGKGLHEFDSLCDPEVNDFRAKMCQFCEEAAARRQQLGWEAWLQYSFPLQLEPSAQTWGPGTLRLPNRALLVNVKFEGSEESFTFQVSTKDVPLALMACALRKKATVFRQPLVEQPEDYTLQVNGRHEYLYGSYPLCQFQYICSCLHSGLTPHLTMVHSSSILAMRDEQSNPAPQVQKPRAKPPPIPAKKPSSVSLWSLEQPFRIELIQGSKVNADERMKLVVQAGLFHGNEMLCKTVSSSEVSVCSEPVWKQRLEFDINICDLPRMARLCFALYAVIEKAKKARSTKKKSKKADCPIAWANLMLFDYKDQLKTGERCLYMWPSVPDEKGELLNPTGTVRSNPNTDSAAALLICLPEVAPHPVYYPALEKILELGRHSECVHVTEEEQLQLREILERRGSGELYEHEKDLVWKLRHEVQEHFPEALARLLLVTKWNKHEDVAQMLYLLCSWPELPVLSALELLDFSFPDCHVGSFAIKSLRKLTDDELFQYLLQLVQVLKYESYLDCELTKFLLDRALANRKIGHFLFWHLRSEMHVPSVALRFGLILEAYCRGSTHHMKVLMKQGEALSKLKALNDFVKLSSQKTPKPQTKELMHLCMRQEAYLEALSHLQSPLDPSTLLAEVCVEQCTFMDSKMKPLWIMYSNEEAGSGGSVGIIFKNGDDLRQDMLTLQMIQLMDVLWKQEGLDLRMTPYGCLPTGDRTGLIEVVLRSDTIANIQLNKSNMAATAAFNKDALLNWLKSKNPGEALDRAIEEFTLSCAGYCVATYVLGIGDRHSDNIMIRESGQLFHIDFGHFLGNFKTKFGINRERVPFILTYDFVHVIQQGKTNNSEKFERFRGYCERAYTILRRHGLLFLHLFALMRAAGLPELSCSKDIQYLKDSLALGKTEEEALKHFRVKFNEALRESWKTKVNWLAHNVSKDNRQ
As to the kind of experiment: Potency index, ratio of i-delalisib IC50 to compound IC50 for inhibition of PI3K delta (unknown origin).

The species named for experiment [2] is Homo sapiens. Description: Selectivity ratio of IC50 for inhibition of PI3K beta (unknown origin) to IC50 for inhibition PI3K delta (unknown origin).
The species entered for experiment [3] is Homo sapiens. As to the kind of experiment: Selectivity ratio of IC50 for inhibition of PI3K alpha (unknown origin) to IC50 for inhibition PI3K delta (unknown origin).
The species entered for experiment [4] is Homo sapiens. Description: Selectivity ratio of IC50 for inhibition of PI3K gamma (unknown origin) to IC50 for inhibition PI3K delta (unknown origin).

As to `COc1ncc(-c2ccc3ncnc(N[C@H]4CCCN(C(=O)c5cccnc5)C4)c3c2)cc1C#N`, the Ratio IC50 stood at 2 in experiment [1], 13 in the experiment listed under Homo sapiens [2] and 170 in the experiment listed under Homo sapiens [3].
As to `COc1ncc(-c2ccc3ncnc(N[C@H]4CCCN(C(=O)CN(C)C)C4)c3c2)cc1C#N`, the Ratio IC50 in the experiment listed under Homo sapiens [4] is 192; in the experiment listed under Homo sapiens [2] it was 115; in the experiment listed under Homo sapiens [3] it was 17.

These data come from ChEMBL document CHEMBL4396940, “Synthesis and biological evaluation of 4-(piperid-3-yl)amino substituted 6-pyridylquinazolines as potent PI3Kδ inhibitors” (Bioorg Med Chem, 2019).
